Measured values: PubChem BioAssay (NCI)
Some tests of the compounds listed are not included; inactive here does not mean inactive elsewhere.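 Compound exposure: 48 hours, 5 concentrations, 96-well plates. At the TGI there is no net growth.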

Experiments:
Assay in all cases: NCI tumour cell line growth inhibition, 48 h
[1] = test system: K-562 leukemia
[2] = test system: HL-60(TB) leukemia
[3] = test system: CAKI-1 renal
[4] = test system: MOLT-4 leukemia
[5] = test system: PC-3 prostate
[6] = test system: SNB-19 CNS
[7] = test system: 786-0 renal
[8] = test system: NCI/ADR-RES ovarian
[9] = test system: MDA-MB-231 breast
[10] = test system: T-47D breast
[11] = test system: TK-10 renal
[12] = test system: A549 NSCLC
[13] = test system: MCF7 breast
[14] = test system: OVCAR-3 ovarian
[15] = test system: NCI-H460 lung
[16] = test system: UO-31 renal
[17] = test system: SN12C renal
[18] = test system: SK-OV-3 ovarian
[19] = test system: HCC-2998 colon
[20] = test system: RPMI-8226 leukemia
[21] = test system: HCT-15 colon
[22] = test system: SF-539 CNS
[23] = test system: MDA-N
[24] = test system: UACC-257 melanoma
[25] = test system: SF-295 CNS
[26] = test system: SNB-75 CNS
[27] = test system: CCRF-CEM leukemia
[28] = test system: M14 melanoma
[29] = test system: IGROV1 ovarian
[30] = test system: HT29 colon
[31] = test system: MALME-3M melanoma
[32] = test system: SK-MEL-28 melanoma
[33] = test system: HOP-62 NSCLC
[34] = test system: SW-620 colon
[35] = test system: NCI-H522 lung
[36] = test system: EKVX NSCLC
[37] = test system: NCI-H322M lung
[38] = test system: SF-268 CNS
[39] = test system: DU-145 prostate
[40] = test system: RXF 393 renal
[41] = test system: KM12 colon
[42] = test system: NCI-H23 lung
[43] = test system: MDA-MB-435
[44] = test system: ACHN renal
[45] = test system: OVCAR-5 ovarian
[46] = test system: COLO 205 colon
[47] = test system: HCT-116 colon
[48] = test system: SK-MEL-2 melanoma
[49] = test system: OVCAR-4 ovarian
[50] = test system: SR leukemia
[51] = test system: SK-MEL-5 melanoma
[52] = test system: NCI-H226 lung
[53] = test system: U251 CNS
[54] = test system: A498 renal
[55] = test system: OVCAR-8 ovarian
[56] = test system: LOX IMVI melanoma
[57] = test system: UACC-62 melanoma

**Q.** Which TGI [1] does the source give for `O=C(CCCN1CCC(OC(=O)C(O)(c2ccccc2)C2CCCC2)CC1)c1ccccc1` (configuration not stated) here?
**A.** 45.4 µM

**Q.** What about the TGI [2] of the same compound?
**A.** 41.1 µM

**Q.** And the TGI [3]?
**A.** 38.5 µM

**Q.** And the TGI [4]?
**A.** 43.7 µM

**Q.** And the TGI [5]?
**A.** 28.1 µM

**Q.** What about the TGI [6] of the same compound?
**A.** 32 µM

**Q.** What about the TGI [7] of the same compound?
**A.** 30.8 µM

**Q.** And the TGI [8]?
**A.** 29.7 µM

**Q.** What about the TGI [9] of the same compound?
**A.** 32.3 µM

**Q.** And the TGI [10]?
**A.** 40.3 µM

**Q.** And the TGI [11]?
**A.** 29.6 µM

**Q.** And the TGI [12]?
**A.** 35.4 µM

**Q.** What about the TGI [13] of the same compound?
**A.** 34.5 µM

**Q.** And the TGI [14]?
**A.** 27 µM

**Q.** What about the TGI [15] of the same compound?
**A.** 36.3 µM

**Q.** What about the TGI [16] of the same compound?
**A.** 21.3 µM

**Q.** What about the TGI [17] of the same compound?
**A.** 30.3 µM

**Q.** And the TGI [18]?
**A.** 38.5 µM

**Q.** What about the TGI [19] of the same compound?
**A.** 31.2 µM

**Q.** What about the TGI [20] of the same compound?
**A.** 49 µM

**Q.** What about the TGI [21] of the same compound?
**A.** 30.7 µM

**Q.** What about the TGI [22] of the same compound?
**A.** 32.1 µM

**Q.** What about the TGI [23] of the same compound?
**A.** 35.4 µM

**Q.** What about the TGI [24] of the same compound?
**A.** 30.4 µM

**Q.** What about the TGI [25] of the same compound?
**A.** 31.8 µM

**Q.** And the TGI [26]?
**A.** 29.4 µM

**Q.** What about the TGI [27] of the same compound?
**A.** 42.3 µM

**Q.** And the TGI [28]?
**A.** 26.8 µM

**Q.** And the TGI [29]?
**A.** 32.6 µM

**Q.** And the TGI [30]?
**A.** 13.3 µM

**Q.** And the TGI [31]?
**A.** 28.7 µM

**Q.** What about the TGI [32] of the same compound?
**A.** 34.7 µM

**Q.** What about the TGI [33] of the same compound?
**A.** 33.1 µM

**Q.** What about the TGI [34] of the same compound?
**A.** 36.3 µM

**Q.** And the TGI [35]?
**A.** 42.9 µM

**Q.** And the TGI [36]?
**A.** 32.5 µM

**Q.** What about the TGI [37] of the same compound?
**A.** 30.2 µM

**Q.** And the TGI [38]?
**A.** 36 µM

**Q.** And the TGI [39]?
**A.** 31.6 µM

**Q.** And the TGI [40]?
**A.** 28.4 µM

**Q.** What about the TGI [41] of the same compound?
**A.** 29.2 µM

**Q.** What about the TGI [42] of the same compound?
**A.** 32.8 µM

**Q.** What about the TGI [43] of the same compound?
**A.** 32.4 µM

**Q.** What about the TGI [44] of the same compound?
**A.** 29.3 µM

**Q.** And the TGI [45]?
**A.** 28.4 µM

**Q.** And the TGI [46]?
**A.** 25.4 µM

**Q.** What about the TGI [47] of the same compound?
**A.** 27.9 µM

**Q.** What about the TGI [48] of the same compound?
**A.** 30.9 µM

**Q.** And the TGI [49]?
**A.** 28 µM

**Q.** And the TGI [50]?
**A.** 37.6 µM

**Q.** And the TGI [51]?
**A.** 29.8 µM

**Q.** And the TGI [52]?
**A.** 33.9 µM

**Q.** And the TGI [53]?
**A.** 32.8 µM

**Q.** And the TGI [54]?
**A.** 32.8 µM

**Q.** What about the TGI [55] of the same compound?
**A.** 30.8 µM

**Q.** What about the TGI [56] of the same compound?
**A.** 28 µM

**Q.** And the TGI [57]?
**A.** 32.4 µM
